## Binding of CDR-mutated scFvs to a peptide of the spike HR2 region

Reference: Engelhart et al. 2022, doi:10.1038/s41597-022-01779-4. File: FLAb, binding data.

The target is the same throughout: PDVDLGDISGINAS, from the HR2 region of SARS-CoV-2 spike.

Ab-95 is the parent antibody, in scFv form: VH, then three GGGGS repeats, then VL. The heavy chain is unchanged in all variants.
VH: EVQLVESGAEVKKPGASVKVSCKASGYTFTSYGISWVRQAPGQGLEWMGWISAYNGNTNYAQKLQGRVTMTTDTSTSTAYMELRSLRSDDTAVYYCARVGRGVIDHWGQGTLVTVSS
VL: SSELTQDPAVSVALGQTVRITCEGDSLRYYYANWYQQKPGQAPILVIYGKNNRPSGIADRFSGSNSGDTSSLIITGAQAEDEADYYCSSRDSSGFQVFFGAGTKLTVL

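The starting antibody came from a phage panning campaign against this peptide. Library AAYL52 holds single substitutions and randomly drawn double and triple substitutions in the CDRs. The assay is AlphaSeq: two haploid yeast populations carry antibody and antigen on their surface. Pairs that bind mate more often; barcode pairs of the diploids are counted by sequencing. A regression on co-assayed BCL2-family reference pairs converts the normalised counts of each replicate to an apparent Kd. There are three technical replicates.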

Positions count from residue 1 of the parent VL; Y31N puts N in place of Y.
Affinities are written as log10 Kd with Kd in nM; a lower number is a better binder.
A mean of the replicates is given; it leaves out those without a signal.
An entry "nd" has no value in the source: the pair was not observed among the diploids in any replicate. This suggests poor binding but is not conclusive.

changes	mean log10 Kd (nM)	detected
Y31N K50R S93R	0.90	3 of 3
Y30D S93N V97C	2.19	3 of 3
Y31D N33M S55C	1.77	3 of 3
E23Y N51A D91R	4.79	2 of 3
S88H S93P F98Q	3.36	3 of 3
Y31V R53H V97L	nd	0 of 3
G24L D25S L27Q	2.54	3 of 3
A32T R53Q G94D	3.89	2 of 3
Y29M Y30C N33L	2.49	3 of 3
S26F R28C A32C	nd	0 of 3
P54R S89N	3.13	1 of 3
S89C F95D	2.18	3 of 3
E23H L27Y S93H	nd	0 of 3
P54I S89T V97G	3.73	2 of 3
Y30D K50T G94D	nd	0 of 3
G24R Y31C R90A	3.44	2 of 3
N51K S55N S93K	4.19	1 of 3
R28K S92T F95V	3.03	3 of 3
S26I Y29V Y30P	2.30	3 of 3
S88R S93E V97T	nd	0 of 3
G24E S55P	4.16	2 of 3
Y29P R53L S89G	4.52	2 of 3
L27S N51D	3.49	2 of 3
E23A S26W N51G	3.78	3 of 3
D25E Q96L V97D	4.23	1 of 3
G24Y G49F F98S	3.23	1 of 3
D25N Y29T P54M	2.00	3 of 3
L27V Y29L N51M	4.58	2 of 3
L27M S92N V97P	3.56	3 of 3
N33F S89H S92K	4.87	1 of 3
Y31P S88W F98K	1.83	3 of 3
E23L N52V F95I	nd	0 of 3
D25M S92F V97C	2.64	3 of 3
S88F S89D R90P	4.57	1 of 3
Y30L A32E N52C	3.79	1 of 3
L27E S88R S93N	3.58	1 of 3
R90F F98V	4.27	2 of 3
G24Y D25L Y31H	3.81	1 of 3
R53H R90K S92A	3.11	3 of 3
Y31C A32N N33P	4.61	3 of 3
A32M G94N Q96I	5.13	1 of 3
E23S P54L S88I	2.64	3 of 3
R28T Y29R P54M	3.01	3 of 3
Q96V F98N	3.24	3 of 3
Y29F G49H P54F	4.35	1 of 3
L27E S55W R90P	4.73	2 of 3
Y29I V97K	nd	0 of 3
S26W Y29P F95V	4.07	2 of 3

For reference, 7 entries of the list once more:

changes	mean log10 Kd (nM)	detected
S88H S93P F98Q	3.36	3 of 3
Y31C A32N N33P	4.61	3 of 3
S26W Y29P F95V	4.07	2 of 3
S26F R28C A32C	nd	0 of 3
D25M S92F V97C	2.64	3 of 3
R90F F98V	4.27	2 of 3
E23H L27Y S93H	nd	0 of 3

Three control strains display no target. For library AAYL52, 28% of the pairings with them gave a signal, with a median of 3.91 and one signal in twenty below 2.90, so weak values seen in few replicates may be background.